This note sets out measurements from PMC6033295, “The Effects of the Honey-Roasting Process on the Pharmacokinetics of the Six Active Compounds of Licorice” (Evidence-based Complementary and Alternative Medicine : eCAM, 2018).

The nature of data set [1]: Pharmacokinetic study in rats after oral administration of raw/honey-roasting licorice water decoction (UPLC-MS/MS of plasma). It is filed as in vivo, Wistar rats. Conditions: for Cmax / Tmax / AUC0-24h: rat plasma, 2.7 g (crude drug)/kg, n = 5. The protocol: Healthy male Wistar rats (weighing 200 ± 20 g) were obtained from the Laboratory Animal Centre of Shanghai Jiao Tong University (Shanghai, China). […] All protocols and procedures were approved by the Shanghai Jiao Tong University Animal Care and Use Committee.
Chromatographic separation was performed on a ZORBAX Eclipse Plus C18 column (50 mm × 2.1 mm, 1.8 µm). […] The flow rate was set at 0.4 mL/min. The column temperature and injection volume were set at 40°C and 2.0 µL, respectively. An MS system operating in negative electrospray ionization mode was employed in this study. […] The DP for each compound and IS were -120, -100, -100, -100, -100, -80, and -100 V, respectively. The collision energy for each compound and IS were -58, -32, -42, -32, -32, -65, and -20 V, respectively. The ion spray needle voltage was set at -4500 V, and the source temperature was 500°C. Following optimization of the setting parameters, the ESI source was operated with the GS1, GS2, and CUR (Nitrogen) set at 35, 35, and 40 psi, respectively.
Fifty microliters of the plasma samples (or standard plasma samples and QC samples) were spiked with 5 µL of IS solution (10.00 µg/mL) and 200 µL of acetonitrile. The mixture was vortexed for 30 s and centrifuged at 14,000 rpm for 15 min at 4°C. The supernatant was collected and evaporated in a 37°C water bath under a nitrogen stream. The residue was redissolved with 500 µL of 70% acetonitrile.
After being housed in a controlled environment for a week, rats were randomly divided into three groups (n = 5 for each group) and were then orally administered a raw, 25% honey-roasting, or 50% honey-roasting licorice water decoction at a dosage of 2.7 g (crude drug)/kg. Blood samples of 0.15 mL were taken from the suborbital vein into heparinized tubes at 0.17, 0.5, 1, 1.5, 2, 2.5, 3, 4, 6, 8, 12, and 24 h after oral administration of the licorice water decoction. The blood samples were immediately centrifuged at 10,000 rpm for 15 min. The separated plasma samples were frozen at -80°C before analysis.
The pharmacokinetic parameters of the six compounds were calculated by […] 4.4.1 (Thermo Electron Corporation, Philadelphia, PA, USA) software. […] Data were presented as the mean ± SD. Statistical analyses of all the data obtained were evaluated using one-way ANOVA (SPSS 17.0).

A short description of data set [2]: Stability of six compounds in rat plasma (QC samples). It is filed as in vitro ADME. Conditions: n = 6. The protocol:
The stabilities of the six compounds in rat plasma were evaluated by analyzing QC samples under different conditions. […] Long-term stability was tested by storing QC samples at -80°C for one month. RSD was evaluated by analyzing six replicate samples. The stability of the six compounds was evaluated under various conditions. QC samples stored in a freezer at -80°C remained stable for one month. […] The stability data were within the acceptance range of 85%-115% (Table 3).

[3] abbreviates: oral 25% honey-roasting licorice water decoction.
[4] abbreviates: oral 50% honey-roasting licorice water decoction.
Where [5] appears, read: oral raw licorice water decoction.

As to liquiritin apioside [LA], the “Cmax lower than in the raw licorice group” value in data set [1] (50% honey-roasting group vs raw licorice group, rat, oral) is listed as 43.7%. Besides, the maximum concentration (Cmax) (as a rule, the maximum level reached in the sampled fluid or tissue) in data set [1] (setting [3]) is reported as 38.49 ± 13.09 ng/mL; in data set [1] (setting [4]), 31.21 ± 8.09^∗ ng/mL; in data set [1] (setting [5]), 55.46 ± 13.51 ng/mL. The Tmax – broadly, the time at which the peak concentration occurs – in data set [1] (setting [3]) was determined as 48 min; in data set [1] (setting [4]), 54 min; in data set [1] (setting [5]), 42 min. Further, the values for the AUC0-24h in data set [1] (setting [4]) and in data set [1] (setting [5]) were 56.30 ± 14.34 ng·h/mL and 82.31 ± 19.00 ng·h/mL, respectively. Moreover, the “Stability, Average” value came out at 98.3% in data set [2] (At 4°C for 24 h, postpreparative QC sample in autosampler, high concentration level); 97.3% in data set [2] (At 4°C for 24 h, postpreparative QC sample in autosampler, low concentration level); 92.4% in data set [2] (At 4°C for 24 h, postpreparative QC sample in autosampler, medium concentration level); 95.3% in data set [2] (At -80°C for 1 month, rat plasma QC sample, high concentration level); 93.2% in data set [2] (At -80°C for 1 month, rat plasma QC sample, low concentration level); 93.7% in data set [2] (At -80°C for 1 month, rat plasma QC sample, medium concentration level).
